Assay results published in paper PMC12707362, “Targeting Aurora Kinases as Essential Cell‐Cycle Regulators to Deliver Multi‐Stage Antimalarials Against Plasmodium Falciparum” (Angewandte Chemie (International Ed. in English), 2025).

Tests used:
[1] = system: hepatocellular carcinoma (HepG2) cells; assay: Cytotoxicity counter-screening (MTT), HepG2; conditions: HepG2 CC50/PfNF54 IC50
Protocol: (§1) HepG2 and CHO cells were maintained at 37 °C, under a humidified atmosphere of 5% CO2, in DMEM high glucose media (Gibco) supplemented with 10% heat-inactivated FBS and 1% (v/v) Penicillin-Streptomycin antibiotics. […] The supernatant was discarded, and the cell pellet was resuspended in 1 mL DMEM media for cell counting by Trypan Blue. To determine the toxicity, cells were resuspended and seeded at a concentration of 1x10^4 cells/well in a 96-well plate and incubated for 24 h^[9,10]. Cells were treated in duplicate with a 10-fold serial dilution starting at 100 ug/mL of inhibitor in new media. After 48 h incubation, the viable cells were measured using the MTT tetrazolium reduction assay, where sterile 25 µL of a 5 mg/mL MTT was added to each well and incubated for 4 h before the […] formazan crystals were dissolved with 100 µL DMSO (Merck) per well. The absorbance, a measure of intracellular reduction of MTT, was measured at 540 nm (Multiskan GO). Emetine (50 µM) was included as a positive drug control, and the background was subtracted from all data before being normalised to the untreated^[9,10].

[2] = system: HepG2 and CHO cell lines versus PfNF54; assay: Selectivity of parasite versus mammalian cell lines; format: cell-based; conditions: mammalian cell line (CHO/HepG2) CC50 versus PfNF54 IC50; cell line not specified
[3] = system: Chinese Hamster Ovary (CHO) cells; assay: Cytotoxicity counter-screening (MTT), CHO; conditions: CHO CC50/PfNF54 IC50
Protocol: as §1

unsynchronized PfNF54 = assay: IC50 speed of kill assay; format: cell-based, Plasmodium falciparum; conditions: 24, 48, 72, 96 h incubation
Protocol: To determine the stage specificity during asexual intra-erythrocytic development, P. falciparum NF54 parasites were synchronised using 5% D-Sorbitol to obtain a >90% ring-stage population (6–10 h post-invasion, hpi). […] The rate of activity and stage-specificity was monitored morphologically using Giemsa-stained thin smears. Asexual intra-erythrocytic stage parasites were treated at ring, early/late trophozoite, and schizont stages, sampling every 12 h over a 48-hour period. Images were captured using a Nikon Eclipse 50i light microscope adapted with a Nikon camera (Nikon DS-Fi1) and NIS-Elements software. […] Parasite progression was monitored every 12 h over a 48-h period using flow cytometry, as described in^[11]. The IC50 speed assay was conducted as described in^[12]. Briefly, unsynchronised P. falciparum NF54 asexual proliferation was determined using a SYBR Green I proliferation-based assay and expressed as IC50 values as described earlier. Four incubation times were employed for each inhibitor: 96 (standard assay time), 72, 48 and 24 h. IC50 values were obtained from corrected dose-response curves using Graph-Pad Prism v10.5.

SMILES | Selectivity index (SI) HepG2 [1] | selectivity index (SI) towards the parasite [2] | Selectivity index (SI) CHO [3] | kill kinetics (IC50 shift over time) (unsynchronized PfNF54)
CCN(CCO)CCCOc1ccc2c(Nc3cc(CC(=O)Nc4cccc(F)c4)n[nH]3)ncnc2c1 [AZD-1152, AZD-1152-HQPA] | 34.41 | > 100 | – | –
CCN1CCN(C(=O)Cc2ccc(Nc3ncc(F)c(Nc4ccc(C(=O)Nc5ccccc5Cl)cc4)n3)cc2)CC1 [AAi I, Aurora A Inhibitor I] | 10.71 | < 10 | 7.48 | –
COc1cc(N2CCC(N3CCN(C)CC3)CC2)ccc1Nc1ncc(Cl)c(Nc2ccccc2S(=O)(=O)C(C)C)n1 [TAE684, NVP-TAE684] | 31.5 | – | 7.21 | significant IC50 shift after 48 h
O=C(Nc1cccc(Nc2nccc(Nc3cccc(C(F)(F)F)c3)n2)c1)C1CC1 [Aki III, Aurora kinase inhibitor III] | 22.49 | < 10 | 2.90 | –
